Common to all, as to type: biochemical
The target of assay [1] is human JAK1 catalytic kinase (JH1) domain (Homo sapiens (Human), UniProt P23458). Kind of assay: ADP-Glo Kinase Assay, recombinant JAK1 catalytic kinase (JH1) domain. The conditions noted are these: read-out: JAK1 biochem IC50 (nM) Mean, recombinant JH1 domain 4 nM, 35 μM ATP, JAK3-342 peptide. On the procedure:
(§1) Compounds of the disclosure were assessed for their ability to inhibit TYK2, JAK1, JAK2, and JAK3 activity. The inhibitory properties of the compounds of the disclosure described herein can be evidenced by testing in any one of the following protocols.
(§2) The kinase activity of recombinantly generated catalytic kinase (also known as JH1) domain of human JAK1, JAK2, JAK3 and TYK2 were evaluated in a plate-based assay using the ADP-Glo™ Kinase Assay platform. Specifically, 4 nM of recombinant JAK1 kinase domain is used to phosphorylate 50 μM of a JAK3-342 (sequence ALVDGYFRLTT) peptide in the presence of 35 μM ATP. Catalytic activities of recombinant JAK2, JAK3 and TYK2 kinase domain (0.2, 0.3 and 2 nM, respectively) are evaluated by the phosphorylation status of the JAK3-974 (50 μM; sequence LPLDKDYYVVR) peptide with the addition of ATP (15, 4 and 10 μM, respectively). The reactions proceed for 100 minutes and the catalytic activity is quantified by first depleting the unused ATP, converting the hydrolyzed ADP into ATP to generate luminescence in a luciferase reaction; which is the basis of the ADP-Glo platform. Compounds are tested at either 10 μM or 1 μM top concentration, 11 points of 3-fold dilution. The data is normalized and the percent activity versus log concentration of compound is fitted with a 4-parameter logistic model to generate a curve and an IC50 value.

Sequences of proteins named here, by UniProt entry; tags and fusion partners are left off. Residues count along the entry.
UniProt P23458, 875-1153 limits assumed: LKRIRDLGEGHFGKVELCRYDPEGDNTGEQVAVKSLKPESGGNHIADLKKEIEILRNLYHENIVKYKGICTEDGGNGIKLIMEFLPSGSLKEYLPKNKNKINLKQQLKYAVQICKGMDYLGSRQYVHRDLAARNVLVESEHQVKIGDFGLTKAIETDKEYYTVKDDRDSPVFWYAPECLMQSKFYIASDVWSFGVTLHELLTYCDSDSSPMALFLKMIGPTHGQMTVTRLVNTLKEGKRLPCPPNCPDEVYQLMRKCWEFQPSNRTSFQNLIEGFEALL
UniProt P29597, 897-1176 limits assumed: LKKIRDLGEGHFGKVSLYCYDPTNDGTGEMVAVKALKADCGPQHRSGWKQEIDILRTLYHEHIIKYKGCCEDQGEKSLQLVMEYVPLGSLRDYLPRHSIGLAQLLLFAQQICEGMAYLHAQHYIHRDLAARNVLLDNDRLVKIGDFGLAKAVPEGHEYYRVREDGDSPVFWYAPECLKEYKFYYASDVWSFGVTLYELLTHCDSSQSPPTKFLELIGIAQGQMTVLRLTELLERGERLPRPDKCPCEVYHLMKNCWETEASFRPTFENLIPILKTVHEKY
UniProt P52333, 822-1111 limits assumed: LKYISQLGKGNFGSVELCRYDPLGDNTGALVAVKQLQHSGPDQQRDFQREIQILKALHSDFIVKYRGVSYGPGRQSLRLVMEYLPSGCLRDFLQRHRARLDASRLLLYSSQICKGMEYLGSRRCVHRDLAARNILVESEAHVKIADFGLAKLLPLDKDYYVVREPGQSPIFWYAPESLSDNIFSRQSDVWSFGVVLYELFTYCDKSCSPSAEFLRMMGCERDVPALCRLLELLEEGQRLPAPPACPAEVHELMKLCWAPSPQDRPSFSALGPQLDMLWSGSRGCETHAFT
UniProt O60674, 849-1124 limits assumed: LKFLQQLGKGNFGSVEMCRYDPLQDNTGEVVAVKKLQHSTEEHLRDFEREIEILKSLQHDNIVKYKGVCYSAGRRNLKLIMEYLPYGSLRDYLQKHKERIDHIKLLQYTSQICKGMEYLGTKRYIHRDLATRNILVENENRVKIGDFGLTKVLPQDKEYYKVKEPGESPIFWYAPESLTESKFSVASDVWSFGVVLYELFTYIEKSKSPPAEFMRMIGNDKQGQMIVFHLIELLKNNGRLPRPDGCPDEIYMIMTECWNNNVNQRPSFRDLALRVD

Assay [2] addresses human TYK2 catalytic kinase (JH1) domain (Homo sapiens (Human), UniProt P29597). Kind of assay: ADP-Glo Kinase Assay, recombinant TYK2 catalytic kinase (JH1) domain. The conditions noted are these: read-out: TYK2 biochem IC50 (nM) Mean, recombinant JH1 domain 2 nM, 10 μM ATP, JAK3-974 peptide. On the procedure: as §1, §2
In general terms: ADP-Glo turns the ADP formed in a reaction into a luminescent signal.

The target of assay [3] is human JAK3 catalytic kinase (JH1) domain (Homo sapiens (Human), UniProt P52333). Kind of assay: ADP-Glo Kinase Assay, recombinant JAK3 catalytic kinase (JH1) domain. The conditions noted are these: read-out: JAK3 biochem IC50 (nM) Mean, recombinant JH1 domain 0.3 nM, 4 μM ATP, JAK3-974 peptide. On the procedure:
as §1, §2

The target of assay [4] is human JAK2 catalytic kinase (JH1) domain (Homo sapiens (Human), UniProt O60674). Kind of assay: ADP-Glo Kinase Assay, recombinant JAK2 catalytic kinase (JH1) domain. The conditions noted are these: read-out: JAK2 biochem IC50 (nM) Mean, recombinant JH1 domain 0.2 nM, 15 μM ATP, JAK3-974 peptide. The procedure:
as §1, §2

What is called IC50 is the point on the concentration scale where inhibition reaches its midpoint.

Regarding `Cn1ncc(-c2cc3c(N4CC5CCC(C4)N5C(=O)[C@@H]4CC4(F)F)ccnc3[nH]2)c1F`, the concentration for half-maximal inhibition (IC50) in assay [1] is 32 nM; in assay [2] it was 0.4 nM; in assay [3] it was 120 nM; in assay [4], 6 nM.

Values taken from US20240360157A1, “TYK2 INHIBITORS” (BIOGEN MA INC., priority 2021, published 2024).
